According to ChEMBL document CHEMBL1121753 (J Med Chem, 1981):

System: ADJ/PC6
Assay: Compound was tested for inhibition against ADJ/PC6 mouse plasma cell tumor at the dose of 320 mg/Kg

## [O-][P@+]1(N(CCCl)CCCl)NC[C@H](F)CO1
  Inhibition: 88.3%
